According to ChEMBL document CHEMBL1150452, “Kinetic characterization of a peptide inhibitor of trypsin isolated from a synthetic peptide combinatorial library” (Bioorg Med Chem Lett, 1995):

Columns and labels:
[1] = substrate: CC[C@H](C)[C@H](NC(=O)[C@H](CCCCN)NC(=O)[C@H](C)NC(=O)CNC(=O)[C@H](Cc1ccc(O)cc1)NC(=O)[C@@H](N)Cc1ccc(O)cc1)C(=O)N[C@@H](C)C(=O)N[C@@H](CCCN=C(N)N)C(=O)N1CCC[C@@H]1C(=O)N[C@@H](CC(=O)O)C(=O)N[C@@H](CCCCN)C(=O)N[C@@H](CCSC)C(=O)O; details: Bos taurus
[2] = substrate: CC[C@H](C)[C@H](NC(=O)[C@H](CCCN=C(N)N)NC(=O)[C@H](C)NC(=O)CNC(=O)[C@H](Cc1ccc(O)cc1)NC(=O)[C@@H](N)Cc1ccc(O)cc1)C(=O)N[C@@H](Cc1ccc(O)cc1)C(=O)N[C@@H](CCCN=C(N)N)C(=O)N1CCC[C@@H]1C(=O)N[C@@H](CC(=O)O)C(=O)N[C@@H](CCCCN)C(=O)N[C@@H](CCSC)C(=O)O; details: Bos taurus

B1: Serine protease 1 (Bos taurus), P00760 (protein)
chain: MKTFIFLALLGAAVAFPVDDDDKIVGGYTCGANTVPYQVSLNSGYHFCGGSLINSQWVVSAAHCYKSGIQVRLGEDNINVVEGNEQFISASKSIVHPSYNSNTLNNDIMLIKLKSAASLNSRVASISLPTSCASAGTQCLISGWGNTKSSGTSYPDVLKCLKAPILSDSSCKSAYPGQITSNMFCAGYLEGGKDSCQGDSGGPVVCSGKLQGIVSWGSGCAQKNKPGVYTKVCNYVSWIKQTIASN
Question: Which Km [1] does the source give for B1 here?
Answer: 86 mM

Question: What about the Km [2] of the same protein?
Answer: 18 mM
